Apparent affinities of Ab-14 variants for a coronavirus HR2 peptide

Values reported by Li et al. 2023, doi:10.1038/s41467-023-39022-2 (FLAb copy).

Target peptide (SARS-CoV-2 spike, HR2 region): PDVDLGDISGINAS

The variants keep the heavy chain, the linker and the frameworks of Ab-14 (scFv order VH, the linker GGGGSGGGGSGGGGS, VL).
VH: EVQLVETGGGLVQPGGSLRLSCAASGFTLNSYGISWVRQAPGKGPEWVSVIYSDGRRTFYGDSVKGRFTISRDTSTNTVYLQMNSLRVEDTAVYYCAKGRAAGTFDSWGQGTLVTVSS
VL: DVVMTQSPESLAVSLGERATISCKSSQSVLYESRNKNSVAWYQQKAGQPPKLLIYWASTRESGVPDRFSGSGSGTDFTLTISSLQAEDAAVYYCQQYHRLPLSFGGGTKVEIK

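The parent was found by panning a naive human phage display library on the peptide. Designed CDR sequences, proposed from the first random library and measured here. Their group label is 14L_Ctrl (Ctrl: baseline library sampled from a position-specific scoring matrix, with some repeated check sequences). The assay is AlphaSeq: two haploid yeast populations carry antibody and antigen on their surface. Binding brings cells together so that they mate, and sequencing counts the barcode pairs among the diploids. A regression on co-assayed BCL2-family reference pairs converts the normalised counts of each replicate to an apparent Kd. Mating was done six times.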

Variants are written as CDR1, CDR2 and CDR3 of the light chain (limits as in the source). Parent: KSSQSVLYESRNKNSVA, WASTRES, QQYHRLPLS.
Scale: log10 of Kd in nM, estimated from mating counts; low values are strong binders.
The mean shown is taken over the replicates in which the pair was detected.
A pair that was not seen in that replicate is written "nd"; this usually means weak binding, but a binder can also be missed.

{"CDR-L1": "KLSQSVPYESRNKNSVA", "CDR-L2": "WAKTRES", "CDR-L3": "QQYHRGPLS", "log10 Kd (nM) by replicate": "nd nd nd nd nd nd", "mean log10 Kd (nM)": "nd", "signal with controls": "0 of 18"}
{"CDR-L1": "KSSQEVLYESRNKNSVA", "CDR-L2": "WASTRES", "CDR-L3": "QQYHRLPLS", "log10 Kd (nM) by replicate": "nd 1.98 nd 1.45 nd nd", "mean log10 Kd (nM)": "1.72", "signal with controls": "1 of 18 (1.96)"}
{"CDR-L1": "KSSQSVLYESRNKNSVA", "CDR-L2": "WADTRES", "CDR-L3": "QQYHRLPLS", "log10 Kd (nM) by replicate": "0.97 1.50 1.06 0.53 0.67 2.59", "mean log10 Kd (nM)": "1.22", "signal with controls": "2 of 18 (2.64)"}
{"CDR-L1": "KFSQSVLYESYNKNSVA", "CDR-L2": "NASTREL", "CDR-L3": "QQYHRLPLS", "log10 Kd (nM) by replicate": "0.30 0.67 0.29 0.29 0.55 0.76", "mean log10 Kd (nM)": "0.48", "signal with controls": "2 of 18 (2.33)"}
{"CDR-L1": "KSSQSVLYESRNLNSVA", "CDR-L2": "WASCRES", "CDR-L3": "NQYHRLPLS", "log10 Kd (nM) by replicate": "nd nd nd nd 3.57 nd", "mean log10 Kd (nM)": "3.57", "signal with controls": "1 of 18 (2.45)"}
{"CDR-L1": "KSSQSVLYESRNENAVA", "CDR-L2": "LASTRES", "CDR-L3": "QQYHWLPLS", "log10 Kd (nM) by replicate": "nd 1.49 1.08 nd 1.91 nd", "mean log10 Kd (nM)": "1.49", "signal with controls": "0 of 18"}
{"CDR-L1": "KFSQSVLYESRNKNSVA", "CDR-L2": "WASTREV", "CDR-L3": "NQYHRLPLS", "log10 Kd (nM) by replicate": "1.50 nd nd nd nd nd", "mean log10 Kd (nM)": "1.50", "signal with controls": "0 of 18"}
{"CDR-L1": "KSSQSVLYSSRNKNSVA", "CDR-L2": "WANTRES", "CDR-L3": "QQYHRLPLS", "log10 Kd (nM) by replicate": "nd 2.33 nd nd nd nd", "mean log10 Kd (nM)": "2.33", "signal with controls": "0 of 18"}
{"CDR-L1": "KIDQSVCYESTNKNSVA", "CDR-L2": "WASTRES", "CDR-L3": "AQYHRLPLS", "log10 Kd (nM) by replicate": "1.84 1.10 1.87 2.37 1.37 1.98", "mean log10 Kd (nM)": "1.76", "signal with controls": "0 of 18"}
{"CDR-L1": "KSSQSVLYESRNINSVA", "CDR-L2": "WASTREE", "CDR-L3": "QQYHRLPLS", "log10 Kd (nM) by replicate": "nd nd nd nd nd nd", "mean log10 Kd (nM)": "nd", "signal with controls": "0 of 18"}
{"CDR-L1": "MSSQSVLYDSRNKNSVA", "CDR-L2": "WASTREV", "CDR-L3": "QQYHRLPLS", "log10 Kd (nM) by replicate": "nd nd nd nd nd nd", "mean log10 Kd (nM)": "nd", "signal with controls": "1 of 18 (1.52)"}
{"CDR-L1": "KSSLSVLDESRNKNSVA", "CDR-L2": "AASTRES", "CDR-L3": "QQYHQLMLS", "log10 Kd (nM) by replicate": "0.95 0.93 1.29 1.33 1.29 1.00", "mean log10 Kd (nM)": "1.13", "signal with controls": "0 of 18"}
{"CDR-L1": "KSSKSVDYESRNKNSVA", "CDR-L2": "NASTRES", "CDR-L3": "QQYHRLPLS", "log10 Kd (nM) by replicate": "0.12 0.35 0.32 0.22 0.20 0.44", "mean log10 Kd (nM)": "0.27", "signal with controls": "2 of 18 (2.80)"}
{"CDR-L1": "KSSGSVLADSRNCNSVA", "CDR-L2": "WALTRES", "CDR-L3": "QQYHRLPLS", "log10 Kd (nM) by replicate": "nd nd nd nd nd nd", "mean log10 Kd (nM)": "nd", "signal with controls": "0 of 18"}
{"CDR-L1": "KSSQSVLYESRFKNSVA", "CDR-L2": "WASTRES", "CDR-L3": "QQYHRLPLS", "log10 Kd (nM) by replicate": "nd nd 2.32 1.45 nd nd", "mean log10 Kd (nM)": "1.89", "signal with controls": "0 of 18"}
{"CDR-L1": "KSSQSVLYESRNKNSVA", "CDR-L2": "WASVRED", "CDR-L3": "QQYHRLPLS", "log10 Kd (nM) by replicate": "nd 1.36 1.53 nd 1.77 3.19", "mean log10 Kd (nM)": "1.96", "signal with controls": "0 of 18"}
{"CDR-L1": "KSSQSVLYESRNSNSVA", "CDR-L2": "WASTRES", "CDR-L3": "QQYHRLPLS", "log10 Kd (nM) by replicate": "2.12 1.62 2.45 2.44 2.44 2.33", "mean log10 Kd (nM)": "2.23", "signal with controls": "0 of 18"}
{"CDR-L1": "KSSIGVLYESRNKNSVA", "CDR-L2": "NGSTRES", "CDR-L3": "QQYHRLPLS", "log10 Kd (nM) by replicate": "0.70 0.16 0.75 0.20 0.05 0.85", "mean log10 Kd (nM)": "0.45", "signal with controls": "0 of 18"}
{"CDR-L1": "KSSQSVLDESQNKNSVA", "CDR-L2": "WASTRES", "CDR-L3": "QQYHRLPLS", "log10 Kd (nM) by replicate": "1.24 1.35 0.90 1.14 1.84 0.55", "mean log10 Kd (nM)": "1.17", "signal with controls": "1 of 18 (2.00)"}
{"CDR-L1": "KSSQNVLGDSRNKNSVA", "CDR-L2": "DASTRES", "CDR-L3": "QQYHRLPLS", "log10 Kd (nM) by replicate": "-0.14 -0.33 -0.35 -0.32 -0.43 -0.06", "mean log10 Kd (nM)": "-0.27", "signal with controls": "1 of 18 (2.07)"}
{"CDR-L1": "KSSQSVLIESRNKNSVA", "CDR-L2": "WASTRSS", "CDR-L3": "QQYHRLPLS", "log10 Kd (nM) by replicate": "1.82 1.88 1.83 2.35 2.38 1.60", "mean log10 Kd (nM)": "1.98", "signal with controls": "2 of 18 (2.76)"}
{"CDR-L1": "KSSNSVLVESTNKNSVA", "CDR-L2": "EASTRER", "CDR-L3": "QQYHRLPLS", "log10 Kd (nM) by replicate": "0.54 0.88 1.05 0.56 1.00 0.87", "mean log10 Kd (nM)": "0.82", "signal with controls": "1 of 18 (3.25)"}
{"CDR-L1": "KSRQSVWYESRNKNSVA", "CDR-L2": "WASTRES", "CDR-L3": "VQYHRLPLS", "log10 Kd (nM) by replicate": "nd nd nd nd nd nd", "mean log10 Kd (nM)": "nd", "signal with controls": "0 of 18"}
{"CDR-L1": "KFSQSVLYESRNKNAVA", "CDR-L2": "WASTRES", "CDR-L3": "QQYHRLPLS", "log10 Kd (nM) by replicate": "0.13 0.00 -0.01 -0.04 0.04 0.07", "mean log10 Kd (nM)": "0.03", "signal with controls": "0 of 18"}
{"CDR-L1": "KLSQSVLYESNNKNSVA", "CDR-L2": "NASTRED", "CDR-L3": "YQYHRLPLS", "log10 Kd (nM) by replicate": "1.63 nd 2.10 2.35 2.07 1.35", "mean log10 Kd (nM)": "1.90", "signal with controls": "0 of 18"}
{"CDR-L1": "KRSQSVLYESRNKNSVA", "CDR-L2": "WASTRES", "CDR-L3": "QQYHRLPLD", "log10 Kd (nM) by replicate": "nd 2.58 2.05 4.85 2.83 nd", "mean log10 Kd (nM)": "3.08", "signal with controls": "1 of 18 (3.27)"}
{"CDR-L1": "KLSQSVLYERRNKNSVA", "CDR-L2": "WASTRES", "CDR-L3": "QQYHRLPWS", "log10 Kd (nM) by replicate": "nd nd nd 2.59 nd 3.10", "mean log10 Kd (nM)": "2.85", "signal with controls": "2 of 18 (3.10)"}
{"CDR-L1": "KSSQSVLYESRNCNSVA", "CDR-L2": "SASTRIS", "CDR-L3": "QQYHRLPLS", "log10 Kd (nM) by replicate": "1.14 1.38 1.20 0.63 1.58 1.57", "mean log10 Kd (nM)": "1.25", "signal with controls": "1 of 18 (2.26)"}
{"CDR-L1": "KSSQSQLYESYNKNSVA", "CDR-L2": "WASTRES", "CDR-L3": "QAYHRLPLS", "log10 Kd (nM) by replicate": "nd 1.80 nd nd nd nd", "mean log10 Kd (nM)": "1.80", "signal with controls": "0 of 18"}
{"CDR-L1": "KFSQSVTYESRNKNSVA", "CDR-L2": "WASTRES", "CDR-L3": "QQYHRLPLS", "log10 Kd (nM) by replicate": "0.87 1.73 1.71 0.84 1.84 2.14", "mean log10 Kd (nM)": "1.52", "signal with controls": "0 of 18"}
{"CDR-L1": "KSSQSYLGESRNKNSVA", "CDR-L2": "QASTRES", "CDR-L3": "QQYHRLPLS", "log10 Kd (nM) by replicate": "0.41 0.08 0.12 0.20 -0.10 0.24", "mean log10 Kd (nM)": "0.16", "signal with controls": "2 of 18 (2.53)"}
{"CDR-L1": "KNSQSVLGESRNKNSVA", "CDR-L2": "NASLRES", "CDR-L3": "QQPHRLPLS", "log10 Kd (nM) by replicate": "0.96 0.40 0.54 0.10 0.90 0.55", "mean log10 Kd (nM)": "0.57", "signal with controls": "2 of 18 (2.54)"}

The closing 4 entries, repeated:

| CDR-L1 | CDR-L2 | CDR-L3 | log10 Kd (nM) by replicate | mean log10 Kd (nM) | signal with controls |
|---|---|---|---|---|---|
| KSSQSQLYESYNKNSVA | WASTRES | QAYHRLPLS | nd 1.80 nd nd nd nd | 1.80 | 0 of 18 |
| KFSQSVTYESRNKNSVA | WASTRES | QQYHRLPLS | 0.87 1.73 1.71 0.84 1.84 2.14 | 1.52 | 0 of 18 |
| KSSQSYLGESRNKNSVA | QASTRES | QQYHRLPLS | 0.41 0.08 0.12 0.20 -0.10 0.24 | 0.16 | 2 of 18 (2.53) |
| KNSQSVLGESRNKNSVA | NASLRES | QQPHRLPLS | 0.96 0.40 0.54 0.10 0.90 0.55 | 0.57 | 2 of 18 (2.54) |

Values of this round are not directly comparable with the first-round values of the same sequences.
The authors' rule: three or more of the six replicates give a measured affinity, fewer mean a poor binder.
Three control strains display no target. For all light chain designs, 4% of the pairings with them gave a signal, with a median of 2.64 and one signal in twenty below 1.59, so weak values seen in few replicates may be background. For each scFv, signals with the empty controls are counted beside the result, with their mean in brackets.